In this assay the target is D(3) dopamine receptor (Homo sapiens, UniProt P35462).

Sequences of proteins named here, by UniProt entry; tags and fusion partners are left off.
UniProt P35462, whole entry: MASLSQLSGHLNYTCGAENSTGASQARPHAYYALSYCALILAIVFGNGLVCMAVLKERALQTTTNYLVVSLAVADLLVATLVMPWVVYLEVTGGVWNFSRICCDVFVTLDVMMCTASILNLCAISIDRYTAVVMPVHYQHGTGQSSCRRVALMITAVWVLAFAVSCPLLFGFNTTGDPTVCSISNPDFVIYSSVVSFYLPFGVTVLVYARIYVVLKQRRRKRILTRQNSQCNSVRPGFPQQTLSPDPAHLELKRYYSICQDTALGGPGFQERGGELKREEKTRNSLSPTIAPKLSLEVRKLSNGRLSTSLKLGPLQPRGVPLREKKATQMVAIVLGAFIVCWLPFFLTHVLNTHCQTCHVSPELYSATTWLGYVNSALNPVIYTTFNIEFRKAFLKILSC

`CCCN1CCCC(c2cccc(O)c2)C1` (single isomer, unassigned; (+)): the Ki came out at 0.217 µM.

With `CCCN1CCCC(c2cccc(O)c2)C1` (single isomer, unassigned; (-)), the affinity, expressed as Ki, was 0.132 µM.

One may read the Ki as a measure of affinity in units of concentration, obtained from inhibition or displacement.

For the origin of these results see ChEMBL document CHEMBL1126862, “Substituted 3-phenylpiperidines: new centrally acting dopamine autoreceptor antagonists” (J Med Chem, 1993).
